Test [1] in a line: Relative intensity of alkylation at the high affinity alkylation site [5-d(AATAB)-3) within w794 DNA (4C or 37 C. 24 h) determined using a scanning densitometer.
The nature of test [2]: Relative intensity of alkylation at the high affinity alkylation site [5-d(AATAB)-3) within w794 DNA (4C or 37 C. 24 h) determined using a scanning densitometer; NA - No alkylation observed at 10e-1 M concentration.
Test [3] can be described thus: Relative intensity of alkylation at the high affinity alkylation site [5-d(AATAB)-3) within w794 DNA (4C, 24 h) determined using a scanning densitometer.
The nature of test [4]: Relative intensity of alkylation at the high affinity alkylation site [5-d(AATAB)-3) within w794 DNA (37C, 24 h) determined using a scanning densitometer.
Test [5] is described as follows: Relative intensity of alkylation at the high affinity alkylation site [5-d(AATAB)-3) within w794 DNA (4C. 24 h) determined using a scanning densitometer NA - No alkylation observed at 10e-1 M concentration.
Test [6] can be described thus: Relative intensity of alkylation at the high affinity alkylation site [5-d(AATAB)-3) within w794 DNA ( 37 C. 24 h) determined using a scanning densitometer NA - No alkylation observed at 10e-1 M concentration.
The nature of test [7]: Relative intensity of alkylation at the high affinity alkylation site [5-d(AATAB)-3) within w794 DNA ( 37 C. 24 h) determined using a scanning densitometer.
A short description of test [8]: Relative intensity of alkylation at the high affinity alkylation site [5-d(AATAB)-3) within w794 DNA (4C. 24 h) determined using a scanning densitometer.
A short description of test [9]: Relative intensity of alkylation at the high affinity alkylation site [5-d(AATAB)-3) within w794 DNA (37C. 24 h) determined using a scanning densitometer; 0.1-0.01.
Test [10] in a line: Relative intensity of alkylation at the high affinity alkylation site [5-d(AATAB)-3) within w794 DNA (4C. 24 h) determined using a scanning densitometer; 0.01-0.001.

The source made the active and inactive calls. The rule behind the calls is not given here.

`CC(C)(C)OC(=O)N1CC2CC23C1=CC(=O)c1ccccc13` (racemic) returned a Relative intensity in test [1] of 0.001. In addition, in test [2], the Relative intensity result is “inactive”.

For `Cl.NNC(=O)N1CC(CCl)c2c1cc(O)c1ccccc21` (racemic), the Relative intensity in [3] was found to be 0.1; in test [4] it was 1.

For the molecule `OC1=CC2=NCC3CC23c2ccccc21` (racemic), the Relative intensity entry in test [5] and in [6] was “inactive” throughout.

`COc1c(O)c2c(c3cc(C(=O)N4CCc5c4c(O)c(OC)c4[nH]c(C(=O)N6C[C@H]7C[C@@]78C6=CC(=O)c6[nH]cc(C)c68)cc54)[nH]c13)CCN2C(N)=O` [(+)-CC-1065]: the Relative intensity in test [7] and in test [8] was 100 each time.

On to `CC(C)(C)OC(=O)NNC(=O)N1CC(CCl)c2c1cc(O)c1ccccc21` (racemic), for which the results for the Relative intensity in [9] and in test [10] were 0.1 and 0.01, respectively.

These data come from ChEMBL document CHEMBL1125942, “A potent, simple derivative of an analog of the CC-1065 alkylation subunit” (Bioorg Med Chem Lett, 1991).
